In patent US10093654B2, “Therapeutically active compounds and their methods of use” (Agios Pharmaceuticals, Inc., priority 2013, dated 2018):

Test system: IDH2 (R140Q) in TF-1 cells
Experiment: Histone hypermethylation, Western blot, TF-1 IDH2 (R140Q) cells
Type: cell-based
Settings: 7 days of treatment; read-out: IC50 for histone demethylation at H3K4me3

2-Methyl-1-[(4-[6-(trifluoromethyl)pyridin-2-yl]-6-{[2-(trifluoromethyl)pyridin-4-yl]amino}-1,3,5-triazin-2-yl)amino]propan-2-ol methanesulfonate [compound 1]
IC50: 236 nM
